{"source": "ChEMBL document CHEMBL4680109", "about": "“A road map for prioritizing warheads for cysteine targeting covalent inhibitors” (Eur J Med Chem, 2018)", "assay": "Inhibition of recombinant cathepsin X (unknown origin) expressed in Pichia pastoris assessed as residual activity at 100 uM using Abz-Fek(Dnp)-OH as substrate preincubated for 30 mins under shaking in presence of 5 mM cysteine followed by substrate addition relative to control", "details": "Homo sapiens", "data": [{"smiles": "O=C(CBr)c1ccc([N+](=O)[O-])cc1", "values": [{"measurement": "Activity", "result": 75, "unit": "%"}]}]}
